Patent US7122651B1, “Nucleic acid molecules encoding opioid growth factor receptors” (priority 1998, dated 2006)

What was measured:
[1] = biological target: T1, nuclear homogenates of human pancreatic tumor cells (PANC-1) (Homo sapiens, UniProt Q9NZT2); test: Competition for binding of [^3H]-[Met^5]-enkephalin in PANC-1 nuclear homogenates; conditions: read-out: competition value (IC50); 1 or 2 nM [^3H][Met^5]-enkephalin
T1 construct: host or cells: PANC-1; nuclear (P1) homogenates, and P2, P3 and S3 fractions in the fractionation study
T1 sequence (Q9NZT2 1-677): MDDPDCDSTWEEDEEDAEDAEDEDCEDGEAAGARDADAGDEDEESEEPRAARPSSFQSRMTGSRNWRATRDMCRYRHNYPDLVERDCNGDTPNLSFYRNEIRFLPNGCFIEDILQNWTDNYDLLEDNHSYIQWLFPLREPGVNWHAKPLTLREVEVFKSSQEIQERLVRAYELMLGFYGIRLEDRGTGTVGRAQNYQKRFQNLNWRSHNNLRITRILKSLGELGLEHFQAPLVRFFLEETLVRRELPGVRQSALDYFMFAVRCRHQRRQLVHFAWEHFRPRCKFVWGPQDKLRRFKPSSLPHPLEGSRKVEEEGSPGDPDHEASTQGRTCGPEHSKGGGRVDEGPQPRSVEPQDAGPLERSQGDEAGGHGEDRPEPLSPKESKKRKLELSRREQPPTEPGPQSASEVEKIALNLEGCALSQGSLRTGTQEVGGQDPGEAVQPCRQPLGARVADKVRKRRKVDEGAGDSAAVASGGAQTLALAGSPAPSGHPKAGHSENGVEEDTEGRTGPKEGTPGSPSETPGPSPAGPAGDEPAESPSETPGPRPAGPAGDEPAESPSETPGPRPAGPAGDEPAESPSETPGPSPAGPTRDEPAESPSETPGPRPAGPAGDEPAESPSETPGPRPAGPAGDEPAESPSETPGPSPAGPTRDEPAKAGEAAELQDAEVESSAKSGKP

[2] = biological target: human pancreatic cancer tissue (Homo sapiens, UniProt Q9NZT2); conditions: read-out: mean Kd; specimens from 3 patients
[3] = biological target: normal mucosa enriched nuclear preparations (Homo sapiens, UniProt Q9NZT2); conditions: read-out: Specific affinity (kα); normal tissues
Capan-1 nuclear fraction = Capan-1 nuclear fraction (Homo sapiens, UniProt Q9NZT2); conditions: Capan-1, log phase
[4] = biological target: MIA PaCA-2 nuclear fraction (Homo sapiens, UniProt Q9NZT2); conditions: MIA PaCA-2, log phase
normal human pancreas = normal human pancreas (Homo sapiens, UniProt Q9NZT2); conditions: read-out: mean Kd; 3 normal specimens
[5] = biological target: T2, PANC-1 nuclear (P1) homogenates (Homo sapiens, UniProt Q9NZT2); test: Binding of [^3H]-[Met^5]-enkephalin to PANC-1 nuclear homogenates (saturation and characterization)
T2 construct: host or cells: PANC-1; nuclear (P1) homogenates, and P2, P3 and S3 fractions in the fractionation study
T2 sequence (Q9NZT2 1-677): T1 sequence (Q9NZT2 1-677)

[6] = biological target: SCCHN enriched nuclear preparations (Homo sapiens, UniProt Q9NZT2); conditions: read-out: Specific affinity (kα); neoplastic tissues
[7] = biological target: Xenografts of Capan-1 growing in nude mice (Homo sapiens, UniProt Q9NZT2); conditions: Capan-1 xenograft, harvested 40 days after inoculation
[8] = biological target: PANC-1 subcellular fractions (P1, P2, P3, S3) (Homo sapiens, UniProt Q9NZT2); conditions: P1 fraction, Nuclear

Row | Substance | IC50 [1] [nM] | Kd [2] [nM] | Kd [3] [nM] | Kd (Capan-1 nuclear fraction) [nM] | Kd [4] [nM] | Kd (normal human pancreas) [nM] | Kd ([5]; PANC-1, Table IV, at least 3 independent assays) [nM] | Kd ([5]; PANC-1 Confluent, 5 days in culture) [nM] | Kd ([5]; PANC-1 Log phase, 3 days in culture) [nM] | Kd ([5]; PANC-1 Post-confluent, 7–8 days in culture) [nM] | Kd [6] [nM] | Kd [7] [nM] | Kd [8] [nM]
1 | [Met^5]-enkephalin | 5.5 |  |  |  |  |  |  |  |  |  |  |  | 
2 | [^3H]-[Met^5]-enkephalin |  | 2.1 ± 1 | 11.6 ± 2.5 | 6.5 ± 4.1 | 10.8 ± 5.5 | 9.6 ± 2.9 | 5.1 ± 1.4 | 5.3 | 4.2 ± 2.1 | 13.1 ± 1.1 | 4.1 ± 0.4 | 2.9 ± 1.5 | 2.3 ± 0.5
